Results as given in patent US20130053410A1, “SUBSTITUTED HETEROARYL 2',3',7',7A'-TETRAHYDROSPIRO[PYRROLE-3,6'-PYRROLO[1,2-C]IMIDAZOLE]-1',2(1H,5'H)-DIONE” (priority 2011, published 2013).

Protein sequences, listed by entry. Tags and fused reporters are not part of them.
UniProt Q00987, whole entry: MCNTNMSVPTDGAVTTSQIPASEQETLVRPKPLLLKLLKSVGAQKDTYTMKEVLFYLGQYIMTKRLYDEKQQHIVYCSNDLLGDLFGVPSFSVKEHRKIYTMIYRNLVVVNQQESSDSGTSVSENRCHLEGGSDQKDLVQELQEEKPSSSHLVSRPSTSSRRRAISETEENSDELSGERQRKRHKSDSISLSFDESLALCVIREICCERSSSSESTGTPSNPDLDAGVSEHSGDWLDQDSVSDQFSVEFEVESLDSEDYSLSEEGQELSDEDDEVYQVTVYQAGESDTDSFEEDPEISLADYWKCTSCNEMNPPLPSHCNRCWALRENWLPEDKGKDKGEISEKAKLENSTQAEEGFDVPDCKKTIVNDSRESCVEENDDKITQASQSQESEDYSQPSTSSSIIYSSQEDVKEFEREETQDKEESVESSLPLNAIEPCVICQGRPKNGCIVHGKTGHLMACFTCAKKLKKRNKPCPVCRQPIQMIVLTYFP

Target: interaction between p53 and MDM2 proteins (recombinant GST-tagged MDM2, biotinylated p53 peptide) (Homo sapiens, UniProt Q00987)
Assay: HTRF assay of inhibition of the p53-MDM2 interaction
Settings: read-out: IC50: bsa: 0.02%
Description: The ability of the compounds to inhibit the interaction between p53 and MDM2 proteins was measured by an HTRF (homogeneous time-resolved fluorescence) assay in which recombinant GST-tagged MDM2 binds to a peptide that resembles the MDM2-interacting region of p53. Binding of GST-MDM2 protein and p53-peptide (biotinylated on its N-terminal end) is registered by the FRET (fluorescence resonance energy transfer) between Europium (Eu)-labeled anti-GST antibody and streptavidin-conjugated Allophycocyanin (APC).
[…] Add 10 uL diluted compounds (1:5 dilution in reaction buffer) to each well, mix by shaking. Add 20 uL biotinylated p53 peptide (180 nM working solution) in reaction buffer to each well and mix on shaker. Incubate at 37° C. for 1 h. Add 20 uL streptavidin-APC and Eu-anti-GST antibody mixture (6 nM Eu-anti-GST and 60 nM streptavidin-APC working solution) in TBS buffer with 0.2% BSA, shake at room temperature for 30 minutes and read using a TRF-capable plate reader at 665 and 615 nm (Victor 5, Perkin ElmerWallac). If not specified, the reagents were purchased from Sigma Chemical Co.

Structure (SMILES) | IC50 [µM]
COc1cc(N2CN3[C@@H](CC(C)(C)C)[C@@]4(C(=O)Nc5ccncc54)[C@@H](c4cccc(Cl)c4F)[C@@H]3C2=O)ccc1C(N)=O (relative stereo) | 0.103
COc1cc(C(=O)O)ccc1N1CN2[C@@H](CC(C)(C)C)[C@@]3(C(=O)Nc4cccnc43)[C@@H](c3cccc(Cl)c3F)[C@@H]2C1=O (relative stereo) | 0.484
